# Measurements from ChEMBL document CHEMBL4017489, “Design, Synthesis, and Evaluation of New Selective NM23-H2 Binders as c-MYC Transcription Inhibitors via Disruption of the NM23-H2/G-Quadruplex Interaction” (J Med Chem, 2017).
# Chains of the proteins cited; added tags and fusions are not shown.
# UniProt P22392, whole entry: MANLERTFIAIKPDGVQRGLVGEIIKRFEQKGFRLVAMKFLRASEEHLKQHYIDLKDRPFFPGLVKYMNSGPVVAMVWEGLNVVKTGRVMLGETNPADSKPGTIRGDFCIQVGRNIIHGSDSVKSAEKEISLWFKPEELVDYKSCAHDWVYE
# Target: Nucleoside diphosphate kinase B (Homo sapiens, UniProt P22392)
# Experiment: Binding affinity to NM23-H2 (unknown origin) assessed as ratio of Kd for protein interaction with biotin-labeled Pu22 c-myc G-quadruplex DNA in presence and absence of compound after 1 hr by ELISA
# How it was run: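 Biotinylated Pu22 (annealed in 10 mM Tris-HCl pH 7.4, 100 mM KCl) bound to streptavidin plates; NM23-H2 from 4000 nM in ten twofold steps, preincubated 1 h at 25 °C with DMSO or 20 μM compound, then 3 h at 37 °C on plate; anti-NM23-H2/HRP/TMB, A450; Hill-fitted KD, ratio with/without compound; three experiments.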
row,Ratio,Structure (SMILES)
1,4.1,CN(C)CCCNc1cc2nc3n(c(=O)c2cc1F)CC/C3=C\c1ccc(OCc2ccccc2)cc1O
2,3.8,O=C(NCCCN1CCCC1)c1ccc(/C=C2\CCn3c2nc2cc(NCCN4CCCC4)c(F)cc2c3=O)cc1
